Molecules are shown by their SMILES.

The subject of this test is LC3-II. In words: LC3-II immunoblot in primary hepatocytes of WT and Pcsk7-/- mice. Particulars: 6 h. It is filed as cell-based, mouse. As to the method: FIG. 13: Immunoblots of LC3 in primary hepatocytes of WT and Pcsk7^−/− mice incubated for 6 h without or with 100 M chloroquine (n=2 independent experiments performed in triplicates). Values are means±SEM. Statistical comparisons with controls were performed by an unpaired two-sided t-test. *p<0.05, **p<0.01, ***p<0.001.
To further probe this fat-burning mechanism, the inventors measured the levels of the autophagosomal marker micro-tubule-associated protein 1A/1B-light chain 3 (LC3-II) by western blot in primary hepatocytes isolated from WT and Pcsk7^−/− mice.
It is concluded that under normal diet, the lack of PC7 leads to enhanced ER-associated autophagy and hydrolysis of TG, ultimately leading to fatty acid release and their enhanced ß-oxidation in mitochondria, as reported in mice treated with an antisense oligonucleotide targeting apolipoprotein B (apoB)(Conlon et al., 2016).
(In general: Immunoblotting shows a protein as a band on a membrane.)

Regarding `CCN(CC)CCCC(C)Nc1ccnc2cc(Cl)ccc12` (stereo not shown) [chloroquine], the LC3-II levels result was “accumulation of LC3-II”.

The values are drawn from patent publication US20250129370A1, “METHOD FOR REDUCING HEPATIC TRIGLYCERIDES” (ADAERATA, LIMITED PARTNERSHIP, priority 2022, published 2025).
